Laboratory results as given in US10613180B2, “Methods and systems of assessing tissue vascular permeability using non-labeled dextran” (priority 2014, dated 2020).

Test system: tumor
Settings: mouse, in vivo

For dextran-FITC [reference compound], the “extravasation of dextran in tumor” value was “extravasated and spread out in the majority of tumor parenchyma”.
